The text below walks through data of PubChem BioAssay AID1813 (Broad Institute, 2009).

This is a selection; strong and weak results do not stand in their true shares. Activity calls are given as the source filed them. Cut-off read from the data, not from the text of the source: active = inhibition above about 60%; inconclusive = no clear call, values can overlap the other calls; inactive = below that.

The experiment can be described thus: MLPCN primary screen, SNCA 5' untranslated region (AID 1813).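 Note: H4 neuroglioblastoma cells stably carrying SNCA 5'UTR luciferase fusion; 0% = DMSO wells and 100% = positive control.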 To be noted: alpha-synuclein 5'UTR reporter, inhibitor activity; stronger effect = higher value; tested at 7.5 µM.
With `CCc1cc(C(=O)NCC2(N3CCCCC3)CCCCC2)sc1C`, the inhibition was inactive: -2.82%.
The figure for `O=C(OC1CN2CCC1CC2)C1c2ccccc2C=Cc2ccccc21` (centres undefined) is inactive: 17.9%; for `N/C(=N\O)c1c(N)no[n+]1[O-]` it is inactive: 5.6%.
Under `CCOC(=O)N1CCC(Nc2ccc(C)cc2)CC1` stands inactive: -3.64%; under `COc1ccc(C(=O)NCC2(N3CCOCC3)CCCCC2)cc1OC`, inactive: 9.98%; under `c1ccc(CN2CCC(Nc3ccccc3)CC2)cc1`, inactive: 3.88%.
Under `CCCN1CCC(Nc2cc(OC)cc(OC)c2)CC1` stands inactive: -13.8%; under `CN(C)C1(CNC(=O)c2cccc(C#N)c2)CCCCC1`, inactive: -8.61%; under `CC(C)(C)OC(=O)N1CCC(N(C(=O)c2ccccc2)c2ccc(Cl)cc2)CC1`, inactive: 1.92%.
For `N#Cc1ccc(C(=O)NCC2(N3CCCCC3)CCCCC2)cc1`, the inhibition was inactive: 10.7%.
The figure for `CN(C)c1ccc(C(=O)NCC2(N3CCCCC3)CCCCC2)cc1` is inactive: -16.5%; for `CCN1CCC(Nc2cccc(F)c2)CC1` it is inactive: 13.8%; for `Cc1ccc(C(=O)NCC2(N3CCCCC3)CCCCC2)o1` it is inactive: 11.6%.
On to `Fc1ccccc1NC1CCN(Cc2ccccc2)CC1`, for which the inhibition was inactive: 15.7%.
With `COc1cc(OC)cc(C(=O)NCC2(N3CCCCC3)CCCCC2)c1`, the inhibition is inactive: 2.75%.
In the case of `CCCOc1ccc(C)cc1CN(CCCl)CCCl`, the inhibition was inactive: -10.8%.
The figure for `CN1CCC(Nc2ccc(Cl)cc2)CC1` is inactive: 6.43%; for `CCC(CO)(C(=O)OC1CN2CCC1CC2)c1ccccc1` (centres undefined) it is inactive: -14.8%; for `COc1cc(OC)cc(C(=O)NCC2(N3CCOCC3)CCCCC2)c1` it is inactive: -7.68%.
Under `COc1cccc(C(=O)N(c2cc(C)cc(C)c2)C2CCN(C(=O)OC(C)(C)C)CC2)c1` stands inactive: 38.8%.
Under `CCCOc1ccc(C(=O)NCC2(N(C)C)CCCCC2)cc1` stands inactive: 0.994%.
As to `CC(C)(C)OC(=O)N1CCC(Nc2ccccc2)CC1`, the inhibition is inactive: -8.53%.
Under `O=C(O)C1(Nc2ccccc2)CCN(Cc2ccccc2)CC1` stands inactive: -9.77%.
Regarding `CCOc1ncccc1C(=O)NCC1(N2CCOCC2)CCCCC1`, the inhibition was inactive: 18.1%.
Under `CN1CCC(Nc2ccc(F)c(Cl)c2)CC1` stands inactive: 4.26%; under `CCOC(=O)N1CCC(Nc2ccc(OC)cc2)CC1`, inactive: -4.95%.
With `N#CC1(Nc2ccccc2)CCN(Cc2ccccc2)CC1`, the inhibition is inactive: -8%.
The figure for `O=C(OC1CN2CCC1CC2)C1c2ccccc2Oc2ccccc21` (centres undefined) is inactive: -4.29%.
Under `O=C(NCC1(N2CCOCC2)CCCCC1)c1cc2ccccc2o1` stands inactive: -20.4%.
The figure for `O=C(NCC1(N2CCCCC2)CCCCC1)c1ccc(Cl)nc1` is inactive: -21.1%; for `Cc1cc(C)cc(N(C(=O)c2ccccc2)C2CCN(C(=O)OC(C)(C)C)CC2)c1` it is inactive: 34%; for `CSc1ccccc1C(=O)NCC1(N2CCCCC2)CCCCC1` it is inactive: 17%.
As to `O=C(NCC1(N2CCCCC2)CCCCC1)c1ccc(=O)[nH]c1`, the inhibition was inactive: -12.9%.
Under `O=C(NCC1(N2CCCCC2)CCCCC1)c1cccs1` stands inactive: 0.338%; under `COc1ccc(C(=O)NCC2(N3CCCCC3)CCCCC2)cc1`, inactive: -8.69%; under `CC(C)(C)OC(=O)N1CCC(N(C(=O)c2ccccc2)c2ccc(F)cc2)CC1`, inactive: 11.6%.
The figure for `COc1ccc(C(=O)NCC2(N3CCCCC3)CCCCC2)c(OC)c1OC` is inactive: -4.48%.
The figure for `CCOC(=O)N1CCC(Nc2cccc(C)c2)CC1` is inactive: -9.04%; for `COc1cc(C(=O)NCC2(N(C)C)CCCCC2)ccc1OC(F)F` it is inactive: -21.6%.
For the molecule `Cc1ccc(OCC(C)C)c(CN(CCCl)CCCl)c1`, the inhibition was inactive: -12.3%.
`O=C(NCC1(N2CCCCC2)CCCCC1)c1ccc(F)cc1`: the inhibition was inactive: -18.5%.
Under `COc1ccc(NC2CCN(CCc3ccccc3)CC2)c(OC)c1` stands inactive: 15.5%; under `CCOC(=O)N1CCC(Nc2ccc(F)cc2)CC1`, inactive: -29.3%.
The figure for `CCOc1ccc(C)cc1CN(CCCl)CCCl` is inactive: 4.47%.
As for `CN1CCN(CCOC(=O)C(O)(c2ccccc2)c2ccccc2)CC1`, the inhibition is inactive: -12.5%.
The figure for `COc1ccc(NC2CCN(C(=O)OC(C)(C)C)CC2)cc1` is inactive: 13.4%.
The figure for `COc1cc(C(=O)NCC2(N3CCCCC3)CCCCC2)ccc1OC(F)F` is inactive: 1.98%.
Under `O=C(NCC1(N2CCOCC2)CCCCC1)c1cc(=O)[nH]c2ccccc12` stands inactive: -0.527%.
For `O=C(NCC1(N2CCCCC2)CCCCC1)c1cccc(C(F)(F)F)c1`, the inhibition was inactive: -12%.
Under `O=C(NCC1(N2CCCCC2)CCCCC1)c1cccc([N+](=O)[O-])c1` stands inactive: -0.214%.
The figure for `CCN1CCC(Nc2ccc(Cl)cc2)CC1` is inactive: 6.14%.
As to `N#CC1(Nc2ccccc2)CCN(CCc2ccccc2)CC1`, the inhibition is inactive: 1.22%.
For the molecule `O=C(NCC1(N2CCCCC2)CCCCC1)c1ccc(OC(F)F)cc1`, the inhibition was inactive: -13.6%.
Under `CCCOc1ccc(C(=O)NCC2(N(C)C)CCCCC2)cc1OC` stands inactive: -4.04%; under `CN1CCC(Nc2cccc(F)c2)CC1`, inactive: -21.1%; under `COc1cc(OC)c(C(=O)NCC2(N(C)C)CCCCC2)cc1OC`, inactive: 3.37%.
On to `COc1ccc(CN(CCCl)CCCl)cc1Cl`, for which the inhibition is inactive: 10.4%.
Under `CN(C)c1cccc(C(=O)NCC2(N3CCCCC3)CCCCC2)c1` stands inactive: -8.74%.
The figure for `CC(C)c1ccc(NC2CCN(C(=O)OC(C)(C)C)CC2)cc1` is inactive: -72.9%.
